Experiment: FTIH study: repeat dose (Day 15) pharmacokinetics of Compound tablets;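 note: subjects with solid tumors in a first-in-human dose-escalation study, single and repeated once-daily oral tablet dosing, some regimens starting with a loading dose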
Details: human, repeat oral dose Day 15, fasting, mean (CV %)

## CC(=O)Nc1cccc(-n2c(=O)n(C3CC3)c(=O)c3c(Nc4ccc(I)cc4F)n(C)c(=O)c(C)c32)c1 [Compound, N-{3-[3-cyclopropyl-5-(2-fluoro-4-iodo-phenylamino)-6,8-dimethyl-2,4,7-trioxo-3,4,6,7-tetrahydro-2H-pyrido[4,3-d]pyrimidin-1-yl]phenyl}acetamide]
2 mg (loading and continuous regimens), N 12
  AR (Accumulation Ratio): 6.57 (36%)
2.5 mg (loading and continuous regimens), N 15
  AR (Accumulation Ratio): 8.14 (42%)
3 mg (loading and continuous regimens), N 14
  AR (Accumulation Ratio): 7.17 (64%)
